{"source": "patent US7728132B2", "about": "“Compositions for stabilizing chlorinated water to sunlight decomposition, and methods of preparation thereof” (Enviro Tech Chemical Services, Inc., priority 2007, dated 2010)", "origin": "cited, not measured here", "details": "cited from earlier work"}
{"smiles": "O=c1[n-]c(=O)[nH]c(=O)[nH]1.[Na+]", "note": "[monosodium cyanurate]", "values": [{"measurement": "solubility relative to cyanuric acid", "value": "about twice the solubility of cyanuric acid"}]}
